In paper PMC3404744 (Molecular Pharmaceutics, 2011):

Target: T1, UGT1A9 (Homo sapiens, UniProt O60656)
T1 sequence (O60656 26-530): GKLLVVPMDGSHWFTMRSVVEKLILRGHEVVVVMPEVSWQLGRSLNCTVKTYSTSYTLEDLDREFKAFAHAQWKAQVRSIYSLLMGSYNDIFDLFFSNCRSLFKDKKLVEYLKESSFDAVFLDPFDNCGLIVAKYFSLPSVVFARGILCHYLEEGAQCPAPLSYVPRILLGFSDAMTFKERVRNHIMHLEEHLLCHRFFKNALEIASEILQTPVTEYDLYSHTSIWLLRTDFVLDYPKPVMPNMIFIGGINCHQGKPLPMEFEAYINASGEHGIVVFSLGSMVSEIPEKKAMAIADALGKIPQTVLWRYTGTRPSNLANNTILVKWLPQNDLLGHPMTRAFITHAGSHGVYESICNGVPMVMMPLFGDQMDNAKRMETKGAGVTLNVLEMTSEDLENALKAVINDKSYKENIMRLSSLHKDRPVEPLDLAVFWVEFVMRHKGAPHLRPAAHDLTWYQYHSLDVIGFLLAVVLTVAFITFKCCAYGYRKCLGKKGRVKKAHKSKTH
Experiment: Glucuronidation kinetics with recombinant human UGT1A9
Type: in vitro ADME

## CCc1c2c(nc3ccc(O)cc13)-c1cc3c(c(=O)n1C2)COC(=O)[C@]3(O)CC [SN-38, 7-ethyl-10-hydroxycamptothecin]
10 μM
  Glucuronidation activity of recombinant UGT1A9: 10 ± 0.8 pmol/min/mg protein
0.625-5 μM
  Activity of recombinant UGT1A9 at lower concentrations: no measurable activity
